# Assay results: patent publication US9301951B2 (Ardelyx, Inc., priority 2010, dated 2016)
# Chains of the proteins cited; added tags and fusions are not shown.
# UniProt Q9JJ09, whole entry: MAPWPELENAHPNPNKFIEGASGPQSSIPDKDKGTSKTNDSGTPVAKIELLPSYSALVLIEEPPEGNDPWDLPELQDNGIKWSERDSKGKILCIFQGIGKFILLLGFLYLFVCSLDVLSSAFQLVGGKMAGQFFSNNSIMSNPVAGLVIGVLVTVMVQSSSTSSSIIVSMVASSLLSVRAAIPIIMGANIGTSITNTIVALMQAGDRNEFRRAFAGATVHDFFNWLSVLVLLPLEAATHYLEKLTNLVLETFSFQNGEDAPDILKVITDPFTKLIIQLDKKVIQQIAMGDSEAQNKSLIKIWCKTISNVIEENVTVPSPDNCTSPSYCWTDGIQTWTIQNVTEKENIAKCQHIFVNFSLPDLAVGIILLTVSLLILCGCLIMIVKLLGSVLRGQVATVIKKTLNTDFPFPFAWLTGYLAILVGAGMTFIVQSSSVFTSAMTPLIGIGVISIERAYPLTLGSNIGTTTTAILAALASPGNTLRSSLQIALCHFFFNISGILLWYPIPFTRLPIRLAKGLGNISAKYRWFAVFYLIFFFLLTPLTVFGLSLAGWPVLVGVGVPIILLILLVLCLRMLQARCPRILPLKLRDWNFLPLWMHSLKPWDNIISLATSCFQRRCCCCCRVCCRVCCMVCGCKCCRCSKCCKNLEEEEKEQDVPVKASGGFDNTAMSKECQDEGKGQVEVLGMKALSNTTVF
# Target: rat NaP2b (SLC34A2) (Rattus norvegicus, UniProt Q9JJ09)
# Test: Inhibition of NaP2b-mediated Pi (33P) uptake in transfected HEK293 cells, rat NaP2b
# Type: cell-based
# Conditions: HEK293 cells transfected with rat NaP2b, 100 uM phosphate, 0.1 nM to 30 uM
row,pIC50 range for rat Nap2b,Structure (SMILES)
1,5.1-6.0,O=C(NCc1cccc(C(F)(F)F)c1)c1ccnc(-c2cc(N3CCCCC3)ccc2NC(=O)c2cccc(CSc3cccc(C(=O)N4CCC(C(=O)O)CC4)c3)c2)c1
2,5.1-6.0,O=C(NCCN1CCOCC1)c1cccc(SCc2cccc(C(=O)Nc3ccc(N4CCCCC4)cc3-c3cc(C(=O)NCc4cccc(C(F)(F)F)c4)ccn3)c2)c1
3,4.5-5,CN(CCN1CCOCC1)C(=O)c1cccc(C(=O)Nc2ccc(N3CCCCC3)cc2-c2cc(C(F)(F)CCc3ccccc3)ccn2)c1
